{"source": "patent US4400199A", "about": "“Thiolcarbamate compounds and their use as herbicides” (priority 1981, dated 1983)", "key": {"rice plants": {"tested_on": "rice plants", "test": "Experiment 1: phytotoxicity to rice plants (pot test, emulsifiable concentrate)", "conditions": "25 days"}, "[1]": {"tested_on": "barnyard grass (Echinochloa crus-galli)", "test": "Experiment 1: herbicidal effects against barnyard grass (pot test, emulsifiable concentrate)", "type": "in vivo", "conditions": "25 days"}, "[2]": {"conditions": "1.5 leaf-stage of barnyard grass, 150 g/10a."}, "[3]": {"conditions": "1.5 leaf-stage of barnyard grass, 300 g/10a."}, "[4]": {"conditions": "1.5 leaf-stage of barnyard grass, 600 g/10a."}, "[5]": {"conditions": "3 leaf-stage of barnyard grass, 150 g/10a."}, "[6]": {"conditions": "3 leaf-stage of barnyard grass, 300 g/10a."}, "[7]": {"conditions": "3 leaf-stage of barnyard grass, 600 g/10a."}}}
{"smiles": "CC1CCCCN1C(=O)SCCCl", "note": "(stereo not drawn)", "values": [{"measurement": "phytotoxicity (rice plant)", "setting": "rice plants; [2]", "value": "0 (less than 10%)"}, {"measurement": "phytotoxicity (rice plant)", "setting": "rice plants; [3]", "value": "0 (less than 10%)"}, {"measurement": "phytotoxicity (rice plant)", "setting": "rice plants; [4]", "value": "2 (30 to 49%)"}, {"measurement": "phytotoxicity (rice plant)", "setting": "rice plants; [5]", "value": "0 (less than 10%)"}, {"measurement": "phytotoxicity (rice plant)", "setting": "rice plants; [6]", "value": "0 (less than 10%)"}, {"measurement": "phytotoxicity (rice plant)", "setting": "rice plants; [7]", "value": "1 (10 to 29%)"}, {"measurement": "herbicidal activity (barnyard grass)", "setting": "[1]; [2]", "value": "3 (50 to 69%)"}, {"measurement": "herbicidal activity (barnyard grass)", "setting": "[1]; [3]", "value": "4 (70 to 89%)"}, {"measurement": "herbicidal activity (barnyard grass)", "setting": "[1]; [4]", "value": "5 (more than 90%)"}, {"measurement": "herbicidal activity (barnyard grass)", "setting": "[1]; [5]", "value": "1 (10 to 29%)"}, {"measurement": "herbicidal activity (barnyard grass)", "setting": "[1]; [6]", "value": "3 (50 to 69%)"}, {"measurement": "herbicidal activity (barnyard grass)", "setting": "[1]; [7]", "value": "3 (50 to 69%)"}]}
